Biological target: Porcine Dipeptidyl Peptidase IV (DPIV) (Sus scrofa, UniProt P22411)
Assay: Binding of diprotin A to a freely mounted DPIV crystal by dripping on microdrops, X-ray crystallographic examination
Details: 50 mM aqueous diprotin A dripped on DPIV crystal; active center around Ser630; FIG. 5
Source text: In the present experiment, a crystal of the DPIV was mounted by means of the free mounting system at a previously determined initial humidity of 97%. For optimization, humidity was decreased in a gradient of 0.5% humidity alteration per 60 s down to 89% r.h. The transformation of the crystal, which is characterized by a significant increase in resolution, already starts at 94% r.h. and reaches its maximum at 89% r.h. Therefore, humidity was kept constant during dripping-on.
An inhibitor solution of aqueous diprotin A solution (50 mM) was used as ligand. With the use of an aqueous solution, smaller drop sizes can be achieved than in comparison with organic solvents, as a result of which the crystal is treated even more gently. […] The total amount of inhibitor dripped on corresponds to an approximately 10-fold molar surplus. The individual parameters of the experiment can be taken from Table 3.
After completion of dripping-on, the crystal was moistened with PFPE oil (perfluoropolyether) as cryo protectant and frozen in liquid nitrogen. The subsequent recording of an X-ray crystallographic data record was conducted on a rotating copper anode.
Data processing was conducted by means of the programs XDS and XSCALE, refinement and manual model construction were conducted by means of the programs CNX and O. The statistics of data collection, processing, and refinement are given in Table 4.

By UniProt entry, the sequences of proteins in these tests, tags left out. Where a name states a change or a piece, a line headed by the entry shows the natural chain unless it says otherwise.
UniProt P22411: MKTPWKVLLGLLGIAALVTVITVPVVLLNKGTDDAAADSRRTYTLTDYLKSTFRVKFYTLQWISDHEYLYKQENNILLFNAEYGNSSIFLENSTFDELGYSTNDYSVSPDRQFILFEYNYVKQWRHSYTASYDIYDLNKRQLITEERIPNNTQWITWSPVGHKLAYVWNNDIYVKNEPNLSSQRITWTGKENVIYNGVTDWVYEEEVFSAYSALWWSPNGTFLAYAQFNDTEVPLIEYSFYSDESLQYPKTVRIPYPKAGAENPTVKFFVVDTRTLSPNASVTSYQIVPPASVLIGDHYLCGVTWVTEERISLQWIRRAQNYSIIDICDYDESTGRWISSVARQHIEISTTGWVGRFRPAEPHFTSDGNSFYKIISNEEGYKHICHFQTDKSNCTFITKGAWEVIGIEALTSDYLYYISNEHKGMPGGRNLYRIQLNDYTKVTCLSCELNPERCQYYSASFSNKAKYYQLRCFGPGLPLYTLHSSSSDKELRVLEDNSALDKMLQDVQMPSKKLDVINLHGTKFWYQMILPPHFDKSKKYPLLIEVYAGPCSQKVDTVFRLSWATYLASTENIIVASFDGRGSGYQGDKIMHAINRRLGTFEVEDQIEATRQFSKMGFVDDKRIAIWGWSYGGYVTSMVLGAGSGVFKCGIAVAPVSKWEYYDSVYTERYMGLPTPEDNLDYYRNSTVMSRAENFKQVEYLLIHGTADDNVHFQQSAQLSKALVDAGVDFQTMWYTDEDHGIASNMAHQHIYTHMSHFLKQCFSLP

diprotin A
binding mode / mechanism seen in the electron density: rather acts as a suicide substrate than as an inhibitor

— patent US20070160501A1, “Device and method for treating a crystal by applying microdrops thereto” (PROTEROS BIOSTRUCTURES GMBH, priority 2003, published 2007)
